Results: publication PMC2929268 (The Journal of organic chemistry, 2010)

By UniProt entry, the sequences of proteins in these tests, tags left out.
UniProt P32245, whole entry: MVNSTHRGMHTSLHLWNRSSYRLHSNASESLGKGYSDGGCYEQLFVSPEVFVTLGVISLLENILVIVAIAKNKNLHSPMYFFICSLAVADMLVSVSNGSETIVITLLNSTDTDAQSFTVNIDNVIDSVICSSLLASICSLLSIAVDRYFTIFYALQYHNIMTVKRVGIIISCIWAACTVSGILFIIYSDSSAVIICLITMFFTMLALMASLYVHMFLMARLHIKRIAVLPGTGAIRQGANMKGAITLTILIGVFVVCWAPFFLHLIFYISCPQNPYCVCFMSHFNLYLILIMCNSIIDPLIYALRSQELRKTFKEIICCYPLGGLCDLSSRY

Key:
hMC4R [1] = target: T1, hMC4R (Homo sapiens, UniProt P32245); experiment: Assay A: europium-based competitive binding assay with probe 17
hMC4R [2] = target: T1, hMC4R; experiment: Assay B: europium-based competitive binding assay with probe 18

With `CC(=O)N[C@@H](Cc1cnc[nH]1)C(=O)N[C@H](Cc1ccccc1)C(=O)N[C@@H](CCCN=C(N)N)C(=O)N[C@@H](Cc1c[nH]c2ccccc12)C(N)=O` [MSH(4), Ac-His-DPhe-Arg-Trp-NH2] as the compound, how does the Ki (hMC4R [1]) read?
Its Ki is 1900 ± 550 nM.

What about the Ki (hMC4R [2]) of the same compound?
The Ki was 760 ± 40 nM.
